Assay results taken from US20120141540A1.

Assays:
[1] = target: Cyclosporin A (Tolypocladium inflatum); experiment: cell-based or functional assay
[2] = target: Cyclosporin A (Tolypocladium inflatum); experiment: centrifugal ultrafiltration (10 kDa cut-off) of a 1:1 protein-drug mixture, CsA measured by HPLC; CsA alone: only 15% in the upper portion

CsA binding capacity of RBC dialysed with 20 µM CypA (HPLC) (µg/ml RBC at 100% hematocrit) [1]: 8.9 | CsA binding capacity of RBC dialysed with 40 µM CypA (HPLC) (µg/ml RBC at 100% hematocrit) [1]: 12.2 | CsA binding capacity of RBC dialysed with 80 µM CypA (HPLC) (µg/ml RBC at 100% hematocrit) [1]: 17 | quantity of drug bound by RBC loaded with 20 µM CypA, times greater than native cells [1]: 1.8 times | quantity of drug bound by RBC loaded with 20 µM CypA, times greater than un-loaded cells [1]: 3 times | quantity of drug bound by RBC loaded with 40 µM CypA, times greater than native cells [1]: 2.4 times | quantity of drug bound by RBC loaded with 40 µM CypA, times greater than un-loaded cells [1]: 4 times | quantity of drug bound by RBC loaded with 80 µM CypA, times greater than native cells [1]: 3 times | quantity of drug bound by RBC loaded with 80 µM CypA, times greater than un-loaded cells [1]: 5 times | percent of the whole drug recovered in the un-filtered fraction [2]: > 70%
Substance: recombinant N-terminal His-tagged human Cyclophilin A (from UniProt P62937 1-165) (enzyme)
